## Membrane permeability of cyclic peptides

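Lipid, pH, incubation time, direction and concentration are not recorded in the data file. Other peptides of the study may be missing here. Entries at the database's floor value (log10 P of -10) are not listed.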

PAMPA measures passive passage through an artificial lipid membrane. P is given in units of 10^-6 cm/s (from log10 values with two decimals); larger means faster passage. Entries marked < or ≤ lay at or below the stated limit.

compound | PAMPA (10^-6 cm/s)
CC[C@H](C)[C@@H]1NC(=O)CCCNC(=O)[C@H](CC(C)C)N(C)C(=O)[C@H](CCCCNC(C)=O)NC(=O)[C@H](CC(C)C)N(C)C1=O | 0.71
CC[C@H](C)[C@@H]1NC(=O)CCCNC(=O)[C@H](CC(C)C)N(C)C(=O)[C@H](CCCNC(=N)N)NC(=O)[C@H](CC(C)C)N(C)C1=O | < 0.1
CC[C@H](C)[C@@H]1NC(=O)CCCNC(=O)[C@H](CC(C)C)N(C)C(=O)[C@H](CC(C)C)NC(=O)[C@H](CC(C)C)N(C)C1=O | 5.5
CC[C@H](C)[C@@H]1NC(=O)CCCNC(=O)[C@H](CC(C)C)N(C)C(=O)[C@H](COC(C)=O)NC(=O)[C@H](CC(C)C)N(C)C1=O | 1.9
CC[C@H](C)[C@@H]1NC(=O)CCCNC(=O)[C@H](CC(C)C)N(C)C(=O)[C@H](Cc2c[nH]cn2)NC(=O)[C@H](CC(C)C)N(C)C1=O | < 0.1
CCOC(=O)N(C(=O)C[C@@H]1NC(=O)[C@H](CC(C)C)N(C)C(=O)[C@H]([C@@H](C)CC)NC(=O)CCCNC(=O)[C@H](CC(C)C)N(C)C1=O)C(=O)OCC | 8.1
CC[C@H](C)[C@@H]1NC(=O)CCCNC(=O)[C@H](CC(C)C)N(C)C(=O)[C@H](CC(C)C)N(C)C(=O)[C@H](CC(C)C)NC1=O | 4.9
CC[C@H](C)[C@@H]1NC(=O)CCCN(C)C(=O)[C@H](CC(C)C)N(C)C(=O)[C@H](CC(C)C)NC(=O)[C@H](CC(C)C)N(C)C1=O | 4.3
CC[C@H](C)[C@@H]1NC(=O)CCCNC(=O)[C@H](CC(C)C)N(C)C(=O)[C@H](CC(=O)O)NC(=O)[C@H](CC(C)C)N(C)C1=O | < 0.1
CC[C@H](C)[C@@H]1NC(=O)CCCNC(=O)[C@H](CC(C)C)N(C)C(=O)[C@H](CO)NC(=O)[C@H](CC(C)C)N(C)C1=O | < 0.1

Excerpt, the opening 2 entries:

| compound | PAMPA (10^-6 cm/s) |
|---|---|
| CC[C@H](C)[C@@H]1NC(=O)CCCNC(=O)[C@H](CC(C)C)N(C)C(=O)[C@H](CCCCNC(C)=O)NC(=O)[C@H](CC(C)C)N(C)C1=O | 0.71 |
| CC[C@H](C)[C@@H]1NC(=O)CCCNC(=O)[C@H](CC(C)C)N(C)C(=O)[C@H](CCCNC(=N)N)NC(=O)[C@H](CC(C)C)N(C)C1=O | < 0.1 |

Collected by the curators of CycPeptMPDB (Li et al. 2023) from Barlow et al. 2020, doi:10.1021/acschembio.0c00218.